Data published in PubChem BioAssay AID782 (Emory University Molecular Libraries Screening Center, 2007).
Where “and” joins values, the source holds several entries; their conditions need not be identical. Equal entries are not always repeated. The entries are a selection whose mix differs from that of the whole data set. Calls of active or inactive are those of the source.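 Rule for the calls: active = inhibition above about 30% (limit read from the data); inactive = the rest.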

Sequences of proteins named here, by UniProt entry; tags and fusion partners are left off.
UniProt P63073, whole entry, looked up: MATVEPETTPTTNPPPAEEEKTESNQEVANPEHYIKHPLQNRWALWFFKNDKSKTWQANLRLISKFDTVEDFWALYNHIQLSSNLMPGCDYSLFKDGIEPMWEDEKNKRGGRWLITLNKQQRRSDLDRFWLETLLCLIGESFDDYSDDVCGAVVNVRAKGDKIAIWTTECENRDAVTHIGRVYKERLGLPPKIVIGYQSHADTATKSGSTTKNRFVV
UniProt Q04637, whole entry, looked up: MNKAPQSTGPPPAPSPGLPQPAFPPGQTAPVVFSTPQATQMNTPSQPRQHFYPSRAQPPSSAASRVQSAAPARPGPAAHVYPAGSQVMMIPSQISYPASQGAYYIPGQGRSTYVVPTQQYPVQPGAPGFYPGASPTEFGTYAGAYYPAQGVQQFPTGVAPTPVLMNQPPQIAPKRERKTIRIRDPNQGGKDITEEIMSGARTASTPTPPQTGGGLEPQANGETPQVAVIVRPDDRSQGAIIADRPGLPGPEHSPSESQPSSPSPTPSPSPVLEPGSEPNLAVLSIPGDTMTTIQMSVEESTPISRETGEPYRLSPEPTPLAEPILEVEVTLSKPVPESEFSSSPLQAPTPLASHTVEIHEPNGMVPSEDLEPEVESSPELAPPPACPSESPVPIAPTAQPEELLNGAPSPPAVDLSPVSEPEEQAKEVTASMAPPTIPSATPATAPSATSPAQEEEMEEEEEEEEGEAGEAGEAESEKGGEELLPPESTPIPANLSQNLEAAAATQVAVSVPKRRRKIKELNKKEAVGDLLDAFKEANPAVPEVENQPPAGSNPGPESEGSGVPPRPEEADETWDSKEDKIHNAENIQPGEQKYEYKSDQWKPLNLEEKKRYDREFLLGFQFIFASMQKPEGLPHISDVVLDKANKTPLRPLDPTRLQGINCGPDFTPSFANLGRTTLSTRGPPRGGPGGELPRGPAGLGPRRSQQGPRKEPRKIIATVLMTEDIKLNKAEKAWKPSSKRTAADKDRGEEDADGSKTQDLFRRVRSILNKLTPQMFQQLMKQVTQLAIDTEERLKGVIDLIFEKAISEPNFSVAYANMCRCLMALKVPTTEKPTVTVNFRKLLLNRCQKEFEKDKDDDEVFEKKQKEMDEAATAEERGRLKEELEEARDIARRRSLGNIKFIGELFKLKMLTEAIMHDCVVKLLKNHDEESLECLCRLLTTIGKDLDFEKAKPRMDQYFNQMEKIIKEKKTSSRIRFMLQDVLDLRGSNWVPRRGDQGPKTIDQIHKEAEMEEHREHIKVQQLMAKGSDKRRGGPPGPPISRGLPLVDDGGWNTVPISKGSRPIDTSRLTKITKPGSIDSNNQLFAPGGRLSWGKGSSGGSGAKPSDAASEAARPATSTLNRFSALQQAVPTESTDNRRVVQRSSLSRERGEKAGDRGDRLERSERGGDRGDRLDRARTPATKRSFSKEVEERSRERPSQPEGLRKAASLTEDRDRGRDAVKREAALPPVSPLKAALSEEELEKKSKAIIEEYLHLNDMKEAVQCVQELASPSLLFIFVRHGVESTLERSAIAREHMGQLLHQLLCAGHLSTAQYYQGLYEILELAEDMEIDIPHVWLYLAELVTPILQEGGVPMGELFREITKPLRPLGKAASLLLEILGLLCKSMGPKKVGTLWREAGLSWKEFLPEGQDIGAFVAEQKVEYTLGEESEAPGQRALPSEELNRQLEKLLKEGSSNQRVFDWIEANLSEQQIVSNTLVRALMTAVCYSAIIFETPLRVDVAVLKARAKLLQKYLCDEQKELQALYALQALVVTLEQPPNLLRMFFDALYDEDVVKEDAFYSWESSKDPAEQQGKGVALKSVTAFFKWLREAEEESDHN

The compounds below were run against Eukaryotic translation initiation factor 4E (Mus musculus) + Eukaryotic translation initiation factor 4 gamma 1 (Homo sapiens) (UniProt P63073+Q04637) (assay: eIF4E–eIF4G protein interaction inhibitors, primary screen, biochemical, uHTS, TR-FRET, eIF4GI fragment (AID 782;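 note: 0% = full FRET control wells and 100% = background wells lacking eIF4GI fragment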)). Conditions: TR-FRET eIF4E-eIF4GI(517-606) binding, 2 h; at 21.7 µM; stronger effect = higher value.

Structure (SMILES) | inhibition
CC1CCC(C(C)C)C(OP(=O)(Nc2ccccn2)c2ccccc2)C1 (stereo not drawn) | inactive: 0%
Cc1nn(-c2ccccc2)c2c1P(=O)(N1CCOCC1)N(C)C(c1ccccc1)=N2 (stereo not drawn) | inactive: -1.86%
CN(C)C1(CNC(=O)c2ccc(S(C)(=O)=O)cc2)CCCCC1 | inactive: 3.73%
O=C(/C=C/c1ccccc1)OC1CN2CCC1CC2 (stereo not drawn) | inactive: 2.14%
O=P1(Nc2ncccn2)COc2ccccc2OC1 | inactive: -7.4%
Nc1cccc([As](=O)(O)c2ccccc2)c1 | inactive: -5.19%
O=[As](O)(c1cccs1)c1cccs1 | inactive: -2.55%
Cc1ccc(OCC(=O)OC2CN3CCC2CC3)cc1 (stereo not drawn) | inactive: -1.01%
O=P1(Nc2ccc(Br)cn2)COc2ccccc2OC1 | inactive: 2.67%
O=P1(Nc2ccccn2)COc2ccccc2OC1 | inactive: 1.17%
CCOP(=O)(Nc1ccc(C)cn1)OCC | inactive: 0.43%
CC(C)(C)C(=O)NC(Sc1ncccn1)C(Cl)(Cl)Cl (stereo not drawn) | inactive: -5.07%
Clc1n[nH]nc1-c1nn[nH][15n]1 | inactive: -0.61%
CC(C)/C=N\N=C(\N)N[N+](=O)[O-] | inactive: -2.31%
CN(C(=O)Cc1ccc(Cl)c(Cl)c1)[C@@H]1CCCC[C@H]1N1CCCC1 | inactive: 7.12%
O=[As](O)(c1ccccc1Br)c1ccccc1Br | inactive: -1.07%
O=C(OC1CN2CCC1CC2)c1ccc(Cl)cc1 (stereo not drawn) | inactive: -1.38%
O=[As](O)(O)c1cccnc1 | inactive: -3.1%
COc1cc(C(=O)NCC2(N3CCOCC3)CCCCC2)cc(Cl)c1OC(C)C | inactive: -2.16%
Cc1cccc(OCC(=O)OC2CN3CCC2CC3)c1 (stereo not drawn) | inactive: 0.89%
O=[As](O)(c1cccc(O)c1)c1cccc(O)c1 | inactive: 6.7%
Nc1cccc2c([As](=O)(O)O)cccc12 | inactive: 1.69%
Cc1ccc(NCCc2c([N+](=O)[O-])cc([N+](=O)[O-])cc2[N+](=O)[O-])cc1 | inactive: 19.6%
CCCOP(=S)(Nc1nc(N)cc(=O)[nH]1)OCCC | inactive: 0.48%
CCOP(=O)(Nc1cccc2ccccc12)OCC | inactive: 1.44%
COc1cc(C2NCCC3(OCCO3)C2(C)C)cc(OC)c1OC (stereo not drawn) | inactive: -2.06%

Structure (SMILES) | inhibition
O=P(Nc1nccs1)(Oc1ccccc1)Oc1ccccc1 | inactive: -2.37%
O=P(Nc1nccs1)(c1ccccc1)c1nc2ccccc2s1 (stereo not drawn) | inactive: -0.01%
CCOP1(=S)c2c(C)nn(CCC#N)c2N=C(c2ccccc2F)N1C (stereo not drawn) | inactive: -1.7%
CS(=O)(=O)c1cc([N+](=O)[O-])c2no[n+]([O-])c2c1 | inactive: 27%
Nc1ccccc1[As](=O)(O)c1ccccc1 | inactive: -3.8%
O=C(O)COc1ccc([As](=O)(O)O)cc1[N+](=O)[O-] | inactive: 4.21%
NC(=O)Nc1ccc([As](=O)(O)O)cc1 | inactive: -2.43%
CN(C(=O)Cc1ccccc1)[C@@H]1CC[C@]2(CCCO2)C[C@H]1N1CCCC1 | inactive: -19.3%
CCOP1(=S)c2c(C)nn(CCC#N)c2N=C(c2ccc(F)cc2)N1C (stereo not drawn) | inactive: 0.48%
O=[N+]([O-])c1ccc2c(c1)nnn2O | inactive: -5.12%
O=[As](O)(c1ccc(O)cc1)c1ccccc1O | inactive: -6.93%
C[As](=O)(O)c1cccc(C(=O)O)c1 | inactive: 5.53%
Cc1ccc(OP(=O)(Nc2ccc([N+](=O)[O-])cn2)Oc2ccc(C)cc2)cc1 | inactive: 0.83%
Cc1ccc2nc3c(c(C)c2c1)CC(C(Cl)Cl)S3 (stereo not drawn) | inactive: 1.03%
ClCCSc1nnc(-c2cccnc2)o1 | inactive: 2.83%
CC(C)c1ccc(OP(=O)(Nc2ccccn2)Oc2ccccc2F)cc1 (stereo not drawn) | inactive: 0.1%
O=[N+]([O-])c1cc([N+](=O)[O-])c(-c2ccn[nH]2)s1 | inactive: 25.1%
CC(C)NC(=O)NP(=O)(Oc1ccccc1)Oc1ccccc1 | inactive: 3.79%
CCN(CC)C(=S)SC(NC=O)C(Cl)(Cl)Cl (stereo not drawn) | inactive: -2.28%
Cc1c2c(nc3ccccc13)SC(C(Cl)Cl)C2 (stereo not drawn) | inactive: 7.8%
Cc1cc(=O)[nH]c(N[N+](=O)[O-])n1 | inactive: 2.53%
O=C(OC1CN2CCC1CC2)C12CC3CC(CC(C3)C1)C2 (stereo not drawn) | inactive: -1.67%
COc1cc(I)ccc1[As](=O)(O)O | inactive: 2.7%
COc1ccc2nc(NP(=O)(c3ccccc3)c3ccccc3)sc2c1 | inactive: -0.81%
COc1ccc(N/C(=N/P(=O)(N2CCOCC2)N2CCOCC2)N2CCOCC2)cc1 | inactive: -1.75%
COP1(=S)c2c(C)nn(CCC#N)c2N=C(c2ccc(F)cc2)N1C (stereo not drawn) | inactive: 3.77%

Structure (SMILES) | inhibition
O=C(COc1ccccc1)OC1CN2CCC1CC2 (stereo not drawn) | inactive: -8.03%
CCOC(=O)c1ccc(NC(=O)C(C)(CCl)SC)cc1 (stereo not drawn) | inactive: -2.94%
CCC(C)N(CC(C)C)C(=S)SC(NC(C)=O)C(Cl)(Cl)Cl (stereo not drawn) | inactive: -5.94%
CCOC(=O)Nc1ccc([As](=O)(O)O)c(O)c1 | inactive: -3.53%
Cc1cc(SC(NC(=O)c2ccccc2)C(Cl)(Cl)Cl)nc(C(C)C)n1 (stereo not drawn) | inactive: -1%
CCOC(=O)Nc1cccc([As](=O)(O)O)c1 | inactive: 0.87%
O=P(Nc1ccccn1)(c1cccc2ccccc12)c1cccc2ccccc12 | inactive: -5.53%
Cc1cc(SC(NC=O)C(Cl)(Cl)Cl)ncn1 (stereo not drawn) | inactive: -0.87%
O=[N+]([O-])c1ccc(Nc2ccc(Oc3ccc([N+](=O)[O-])cc3[N+](=O)[O-])cc2)c([N+](=O)[O-])c1 | inactive: 4.23%
O=C(Nc1cc([As](=O)(O)O)ccc1O)c1ccccc1 | inactive: -2.41%
O=[N+]([O-])c1ncn(CCn2ncnc2[N+](=O)[O-])n1 | inactive: -3.31%
CC(C)(C)C(=O)NC(Sc1ccncn1)C(Cl)(Cl)Cl (stereo not drawn) | inactive: 7.23%
O=C(O)CNc1ccc([As](=O)(O)O)cc1 | inactive: -5.8%
O=[N+]([O-])c1cccc(NC2=NCC(CBr)S2)c1 (stereo not drawn) | inactive: 1.67%
COc1ccc(C2=NCC(CBr)S2)cc1 (stereo not drawn) | inactive: 0.3%
CCc1nc2c(n1)c1c(non1O)c1c2no[n+]1[O-] | inactive: -8.3%
O=[N+]([O-])c1cc([N+](=O)[O-])c(CCNc2ccccc2)c([N+](=O)[O-])c1 | inactive: 2.43%
Cc1ccc(NP(=O)(Oc2ccccc2)Oc2ccccc2)nc1 | inactive: -1.59%
O=[N+]([O-])c1cccc2n[nH]nc12 | inactive: 7.13%
CC(=O)N1C2C3N(C(C)=O)C1C1N(C(C)=O)C(C(N1C(C)=O)N3C(C)=O)N2C(C)=O | inactive: 4.16%
CCN(/C(=N/P(=O)(N1CCOCC1)N1CCOCC1)N1CCOCC1)c1ccc(OC)cc1 | inactive: 1.18%
C[N+]1=C2C=CC=CC=C2SC12C([N+](=O)[O-])=CC([N+](=O)[O-])=C[C-]2[N+](=O)[O-] (stereo not drawn) | inactive: 6.98%
Nc1ccc([As](=O)(O)c2ccc(N)cc2)cc1 | inactive: 0.27%
CC1CCN(C(=O)Oc2c(Cl)cc(Cl)c3cccnc23)CC1 | inactive: 1.47%
CN(C)C(=O)OCCc1n(C)cc[n+]1C | inactive: 22.1%
CC(C)=N/N=C(\N)N[N+](=O)[O-] | inactive: 1.89%

Structure (SMILES) | inhibition
Cc1ccc(N/C(=N/P(=O)(N2CCOCC2)N2CCOCC2)N2CCOCC2)cc1 | inactive: 0.31%
NC(=O)c1cc([N+](=O)[O-])cc([N+](=O)[O-])c1N | inactive: -2.28%
CN1CCCC(OC(=O)C(c2ccccc2)c2ccccc2)C1 (stereo not drawn) | inactive: -4.23%
Clc1ccc(Cl)c(NC2=NCC(CBr)S2)c1 (stereo not drawn) | inactive: 2.66%
Cc1ccc(OP(=O)(Nc2nccs2)Oc2ccc(C)cc2)cc1 | inactive: 0.27%
COc1ccccc1OP(=O)(Nc1ccc(C)cn1)Oc1ccccc1OC | inactive: 1.42%
O=C(NC(Sc1ccncn1)C(Cl)(Cl)Cl)c1ccccc1 (stereo not drawn) | active: 48.4%
Cc1c2non([O-])c-2c(C)[n+](=O)[n+]1[O-] | inactive: -4%
Oc1ccccc1CNc1ccccn1 | inactive: 3.09%
Nc1cc(N)c2nonc2c1[N+](=O)[O-] | inactive: 0.27%
CC(C)CC(=O)NC(Sc1ccc(Cl)cc1)C(Cl)(Cl)Cl (stereo not drawn) | inactive: -8.81%
O=P(Nc1nc2ccc(Cl)cc2s1)(c1ccccc1)c1ccccc1 | inactive: -2.36%
CC(=O)Nc1ccc([As](=O)(O)O)cc1 | inactive: -10%
O=C(O)c1ccccc1[As](=O)(O)O | inactive: 5.05%
Cc1ccc(NP(=O)(Oc2ccccc2F)Oc2ccccc2F)nc1 | inactive: -1.65%
Cc1cc(SC(NC(=O)c2ccc(F)cc2)C(Cl)(Cl)Cl)ncn1 (stereo not drawn) | inactive: 6.8%
CCOP(=O)(Nc1ccccc1)OCC | inactive: 4.38% and inactive: -1.22%
Nc1cccc2ccc([As](=O)(O)O)cc12 | inactive: -5.47%
CCN(N=Nc1nonc1N)c1nonc1N | inactive: -1.61%
CCOC(=O)NC(Sc1ccccc1)C(Cl)(Cl)Cl (stereo not drawn) | inactive: 5.89%
Cc1ccc(NP(=O)(Oc2cccc(C)c2)Oc2cccc(C)c2)nc1 | active: 96.9%
c1ccc(-c2nn[nH]n2)c(-c2nn[nH]n2)c1 | inactive: 3.86%
CCNC(=S)/N=C(\N)N[N+](=O)[O-] | inactive: -3.79%
O=C(NC1CCS(=O)(=O)C1)NP(=S)(Oc1ccccc1)Oc1ccccc1 (stereo not drawn) | inactive: 3.58%
CCC(=O)N1C2C3N(C(=O)CC)C1C1N(C(=O)CC)C(C(N1C(=O)CC)N3C(=O)CC)N2C(=O)CC | inactive: 1.58%
